Measured values: US7572574B2, “Method of measuring neprilysin activity” (Riken, priority 2002, dated 2009)

Target: T1, neprilysin (Mus musculus, UniProt Q61391)
T1 construct: endogenous in cells; host or cells: mouse fetal cerebral cortex and hippocampus primary cultured nerve cells, paraformaldehyde-fixed
T1 sequence (Q61391 1-750): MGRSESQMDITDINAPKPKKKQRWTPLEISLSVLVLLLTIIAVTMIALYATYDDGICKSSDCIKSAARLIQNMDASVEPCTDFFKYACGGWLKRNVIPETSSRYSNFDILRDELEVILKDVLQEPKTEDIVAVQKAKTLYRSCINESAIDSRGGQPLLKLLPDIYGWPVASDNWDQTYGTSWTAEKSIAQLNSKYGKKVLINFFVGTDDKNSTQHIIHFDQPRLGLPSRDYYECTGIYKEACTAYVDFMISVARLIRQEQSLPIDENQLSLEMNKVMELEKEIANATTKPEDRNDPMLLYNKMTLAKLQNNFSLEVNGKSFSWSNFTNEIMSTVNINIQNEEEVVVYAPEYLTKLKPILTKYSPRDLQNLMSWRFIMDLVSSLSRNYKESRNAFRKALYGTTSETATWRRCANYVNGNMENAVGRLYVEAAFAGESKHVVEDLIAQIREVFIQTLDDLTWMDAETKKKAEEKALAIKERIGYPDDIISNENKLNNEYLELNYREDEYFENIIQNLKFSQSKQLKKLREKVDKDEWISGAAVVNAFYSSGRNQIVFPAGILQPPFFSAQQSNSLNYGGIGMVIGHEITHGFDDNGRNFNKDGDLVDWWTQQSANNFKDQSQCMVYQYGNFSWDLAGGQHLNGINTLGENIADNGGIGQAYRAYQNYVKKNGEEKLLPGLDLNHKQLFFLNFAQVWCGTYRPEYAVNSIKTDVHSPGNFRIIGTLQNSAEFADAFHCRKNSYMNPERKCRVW
Experiment: Neprilysin activity staining in mouse primary cultured nerve cells (fluorescent substrate, confocal microscopy)
Format: cell-based
Details: final concentration 10 μM in substrate solution; fixed mouse primary nerve cells

## O=C(O)CNC(=O)C(CS)Cc1ccccc1 (stereo not shown) [thiorphan]
  neprilysin enzyme activity on adding the inhibitor to the substrate solution: almost completely disappeared
